What was measured:
[1] = target: glucagon-like peptide 1 receptor (GLP-1R) (Homo sapiens, UniProt P43220); assay: GLP-1R agonist activity (cellular assay); format: cell-based
Source text: This disclosure relates to a dual agonist peptide(s) as well as pharmaceutical dosage formulations comprising, and methods for using, the same. The dual agonist peptides have affinity for, and in preferred embodiments about equal affinity for, glucagon-like peptide 1 receptor (GLP-1R) and glucagon receptor (GCGR), as may be determined using a cellular assay. In preferred embodiments, this disclosure provides methods for using pemvidutide (e.g., preferably pharmaceutical dosage formulation comprising SEQ ID NO: 1) that upon administration to a human being prevents and/or treats cardiovascular (CV) disease and/or CV disease-related conditions, symptoms, causes, and/or risks thereof. In some embodiments, the human being is overweight, obese (e.g., a body mass index of at least about 25), and may or may not suffer from type 2 diabetes. In preferred embodiments, the administration of pemvidutide as disclosed herein results in the weight loss and/or a reduction in waistline (“waist circumference”) measurements. In preferred embodiments, the CV disease-related conditions, including but not limited to high cholesterol, triglycerides, LDL and/or VLDL particle concentration and/or diameter, weight loss and/or reduction in waistline measurement, is significant as measured against an untreated or control (e.g., vehicle-treated) individual and/or population. […]

By UniProt entry, the sequences of proteins in these tests, tags left out. Residues count along the entry.
UniProt P43220, 24-463: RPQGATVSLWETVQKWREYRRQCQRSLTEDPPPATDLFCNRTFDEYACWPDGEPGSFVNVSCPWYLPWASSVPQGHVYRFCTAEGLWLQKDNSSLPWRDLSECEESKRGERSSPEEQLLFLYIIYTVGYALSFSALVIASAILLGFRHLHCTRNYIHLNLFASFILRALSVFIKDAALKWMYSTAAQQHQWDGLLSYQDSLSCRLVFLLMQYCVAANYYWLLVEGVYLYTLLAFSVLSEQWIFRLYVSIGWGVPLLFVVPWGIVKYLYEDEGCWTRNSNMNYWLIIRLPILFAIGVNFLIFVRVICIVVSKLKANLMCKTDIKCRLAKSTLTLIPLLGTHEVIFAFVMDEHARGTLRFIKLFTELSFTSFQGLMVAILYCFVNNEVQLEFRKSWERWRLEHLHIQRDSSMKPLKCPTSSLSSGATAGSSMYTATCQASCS

[2] = test system: diet-induced obese hamsters; assay: Macrophage-to-feces reverse cholesterol transport study in diet-induced obese hamsters; format: in vivo, male Golden Syrian hamsters
Method: The study was conducted in male Golden Syrian hamsters placed on a free choice diet (free choice between a chow diet with normal tap water or a high fat/cholesterol diet (Safe Diets, 40.8% fat, 14.8% protein, 44.4% carbohydrates and 0.5% cholesterol, 4444.2 kcal/kg diet) with 10% fructose enriched tap water (0.4 kcal/L) provided ad libitum for a minimum of 20 weeks prior to the study start and until the end of the experiment. After randomization based on body weight and plasma cholesterol levels, hamsters were assigned to two groups of ten (10) animals receiving vehicle or pemvidutide (10 nmol/kg) administered subcutaneously daily for 35 days and during a 72-hour macrophage-to-feces reverse cholesterol transport (RCT) experiment. Body weight was measured three (3) times per week. On day 35, hamsters were six (6)-hour fasted and blood (150 μL/heparin) was collected by retro-orbital bleeding under isoflurane anesthesia to isolate plasma and measure fasting plasma triglycerides, total cholesterol, LDL-cholesterol and HDL-cholesterol levels. On day 36, Hamsters were injected intraperitoneally with oxidized LDL-loaded/[3H]-cholesterol labeled J774 macrophages to perform a 72-hour macrophage-to-feces RCT experiment, as previously described in Castro-Perez et al (Castro-Perez, et al.. Anacetrapib promotes reverse cholesterol transport and bulk cholesterol excretion in Syrian golden hamsters. J Lipid Res. 2011; 52: 1965-73). Blood was collected on heparin tubes, under slight isoflurane anesthesia 24, 48 and 72 hours after injection of the labeled J774 cells to measure radioactivity in plasma. Feces were continuously collected during the 72-hours experiment then weighed prior to measuring fecal [3H]-cholesterol and [3H]-bile acids after chemical extraction from feces homogenate. After 72 hours, hamsters were sacrificed, and livers were collected to measure hepatic lipid after chemical extraction from liver sample homogenate.
Following injection of the [3H]-cholesterol labeled J774 macrophages, [3H]-cholesterol and/or [3H]-bile acid (resulting from the enzymatic conversion of [3H]-cholesterol in the liver) were measured in plasma, liver and feces samples at 72 hours, and expressed as the percentage of [3H]-cholesterol injected dose.

[3] = 10 nmol/kg SC daily for 35 days, vs vehicle

## CC[C@H](C)[C@H](NC(=O)[C@H](Cc1ccccc1)NC(=O)[C@H](CCC(=O)O)NC(=O)[C@@H]1CCCCNC(=O)CC[C@H](NC(=O)[C@H](CC(=O)O)NC(=O)[C@H](CC(C)C)NC(=O)[C@H](Cc2ccc(O)cc2)NC(=O)[C@H](CCCCN)NC(=O)[C@H](CO)NC(=O)[C@H](Cc2ccc(O)cc2)NC(=O)[C@H](CC(=O)O)NC(=O)[C@H](CO)NC(=O)[C@@H](NC(=O)[C@H](Cc2ccccc2)NC(=O)[C@@H](NC(=O)CNC(=O)[C@H](CCC(N)=O)NC(=O)C(C)(C)NC(=O)[C@@H](N)Cc2c[nH]cn2)[C@@H](C)O)[C@@H](C)O)C(=O)N[C@@H](CCCCNC(=O)[C@H]2O[C@@H](OCCCCCCCCCCCCCCCCCC(=O)O)[C@H](O)[C@@H](O)[C@@H]2O)C(=O)N[C@@H](C)C(=O)N[C@@H](C)C(=O)N1)C(=O)N[C@@H](CCC(N)=O)C(=O)N[C@@H](Cc1c[nH]c2ccccc12)C(=O)N[C@@H](CC(C)C)C(=O)N[C@@H](CC(C)C)C(=O)N[C@@H](CCC(N)=O)C(=O)N[C@H](C(N)=O)[C@@H](C)O [pemvidutide]
[1]
  EC50: ~0.04 nM
[2]; [3]
  liver fatty acids: lowering
  liver triglyceride: lowering
[2]; 10 nmol/kg SC daily for 35 days, vs vehicle, p<0.05
  liver cholesterol: lowering
[2]; 10 nmol/kg SC daily, day 35, vs vehicle
  plasma cholesterol (lower than vehicle): not considered statistically significant
[2]; 10 nmol/kg SC daily, day 35, vs vehicle, p<0.0001
  percentage change in body weight from baseline: significant impact
[2]; 10 nmol/kg SC daily, day 35, vs vehicle, p<0.0005
  plasma triglycerides: lowering
[2]; 10 nmol/kg SC daily, day 35, vs vehicle, p<0.005
  plasma HDL-c: lowering
[2]; 10 nmol/kg SC daily, day 35, vs vehicle, p<0.05
  plasma LDL-c: lowering
[2]; 10 nmol/kg SC daily, vs vehicle, p<0.005
  liver weight: reduction
[2]; 72 hours after labeled J774 macrophages, vs vehicle
  [3H]-bile acid in the feces, % of injected dose per gram of feces or total feces weight: trend toward an increase
[2]; 72 hours after labeled J774 macrophages, vs vehicle, p<0.05
  [3H]-cholesterol in the feces, % of injected dose per gram of feces or total feces weight: significant increase
[2]; after injection of labeled J774 macrophages, vs vehicle
  [3H]-cholesterol in plasma: lowering

— patent publication US20250367263A9, “Therapeutic Regimens and Methods for Treatment of Cardiovascular Risk Factors using a GLP-1R and GCGR Agonist” (Spitfire Pharma LLC, priority 2022, published 2025)
